Data published in patent US10000452B1, “Quinolone-based compounds, formulations, and uses thereof” (University of South Florida, priority 2016, dated 2018).

Tests used:
[1] = test system: Pb-infected mice; experiment: in vivo efficacy scouting assay against blood stages; design: species or system P. berghei; mice; conditions: vs untreated animals; for % Inhibition Day 3 PI / % Inhibition Day 6 PI: single oral 50 mg/kg dose 1 day PI
Description: The screening involved a single oral 50 mg/kg dose 1 day post infection (PI) and an assessment of parasitemia on days 3 PI and 6 PI (Table 6).
The screening was performed by treating two infected mice with a single 50 mg/kg oral dose of test compound suspended in PEG400 on day 1 postexposure (PE) followed by assessing parasitemia on days 3 and 6 PE.

[2] = test system: malarial strain TM90-C2B (mefloquine, chloroquine, atovaquone, and pyrimethamine-resistant); type: cell-based, P. falciparum; conditions: RI = EC50 TM90-C2B/EC50 W2
Description: Ideally, the RI of a compound should lie between 0.3 and 3.0 in order to avoid rapidly inducing resistance in the parasite. […]

[3] = test system: P. berghei sporozoite infected mice; experiment: in vivo efficacy against liver stages, bioluminescence imaging; conditions: single dose 1 hour after infection
Description: Animals (n=5 per group) received a single dose by gavage 1 hour after inoculation with sporozoites. Representative images taken at 44 h, day 6, day 9, and day 13 after infection are shown. At 44 h, bioluminescent signal was detected in control untreated animals, with the highest intensity noted in the area overlaying the liver, consistent with the presence of liver-stage parasites.
At 44 h PI, day 6 PI, day 9 PI, and day 13 PI, compound efficacy was determined by bioluminescence imaging via injection of D-luciferin. Both compounds were administered orally or subcutaneously at increasing doses of 25 mg/kg, 50 mg/kg, and 100 mg/kg in PEG 400. […] Progression of parasitemia was monitored up to 30 days after infection (Table 8).

Row | SMILES | % Inhibition Day 3 PI [1] [%] | RI [2] | other results
1 | COC(=O)c1c[nH]c2cc(N3CCN(c4ccccc4)CC3)c(OC)cc2c1=O [Compound 8d, Methyl 6-methoxy-4-oxo-7-(4-phenylpiperazin-1-yl)-1,4-dihydroquinoline-3-carboxylate] | 70.0 |  | 
2 | COC(=O)c1c[nH]c2cc(CN3CCN(c4ccc(F)cc4)CC3)c(OC)cc2c1=O [Compound 8aa, Methyl 7-((4-(4-fluorophenyl)piperazin-1-yl)methyl)-6-methoxy-4-oxo-1,4-dihydroquinoline-3-carboxylate] | 100 | 122 | 
3 | COC(=O)c1c[nH]c2cc(CCN3CCN(Cc4ccccc4)CC3)ccc2c1=O [Compound 8ad, Methyl 7-(2-(4-benzylpiperazin-1-yl)ethyl)-4-oxo-1,4-dihydroquinoline-3-carboxylate] |  | 53.2 | 
4 | COC(=O)c1c[nH]c2cc(N3CCN(c4ccccc4)CC3)ccc2c1=O [Compound 8a, Methyl 4-oxo-7-(4-phenylpiperazin-1-yl)-1,4-dihydroquinoline-3-carboxylate] | 38.5 |  | 
5 | O=c1c(Cl)c[nH]c2cc(CN3CCN(c4ccc(F)cc4)CC3)ccc12 [Compound 8al, 3-Chloro-7-((4-(4-fluorophenyl)piperazin-1-yl)methyl)quinolin-4(1H)-one] | 100 | 2.16 | 
6 | COC(=O)c1c[nH]c2cc(CN3CCN(c4ccc(F)cc4)CC3)c(C)cc2c1=O [Compound 8u, Methyl 7-((4-(4-fluorophenyl)piperazin-1-yl)methyl)-6-methyl-4-oxo-1,4-dihydroquinoline-3-carboxylate] |  | 413 | 
7 | O=c1c(Br)c[nH]c2cc(CN3CCN(c4ccc(F)cc4)CC3)ccc12 [Compound 8ak, 3-Bromo-7-((4-(4-fluorophenyl)piperazin-1-yl)methyl) quinolin-4(1H)-one] |  | 2.99 | 
8 | COC(=O)c1c[nH]c2cc(CN3CCN(c4ccccc4)CC3)c(C)cc2c1=O [Compound 8q, Methyl 6-methyl-4-oxo-7-((4-phenylpiperazin-1-yl)methyl)-1,4-dihydroquinoline-3-carboxylate] | 46.2 |  | 
9 | COC(=O)c1c[nH]c2cc(CN3CCN(c4ccc(C(F)(F)F)cc4)CC3)ccc2c1=O [Compound 8p, Methyl 4-oxo-7-((4-(4-(trifluoromethyl)phenyl)piperazin-1-yl)methyl)-1,4-dihydroquinoline-3-carboxylate] |  |  | inhibition in vivo at 50 mg/kg ([1]; Plasmodium berghei, po, 144 h, read-out: % Inhibition Day 6 PI, single oral 50 mg/kg dose 1 day PI): 100%
10 | COC(=O)c1c[nH]c2cc(CN3CCN(c4ccc(OC)cc4)CC3)ccc2c1=O [Compound 8n, Methyl 7-((4-(4-methoxyphenyl)piperazin-1-yl)methyl)-4-oxo-1,4-dihydroquinoline-3-carboxylate] | 100 | 62.4 | 
11 | COC(=O)c1c[nH]c2ccc(CN3CCN(c4ccc(OC)cc4)CC3)cc2c1=O [Compound 8ag, Methyl 6-((4-(4-methoxyphenyl)piperazin-1-yl)methyl)-4-oxo-1,4-dihydroquinoline-3-carboxylate] | 84.6 |  | 
12 | COC(=O)c1c[nH]c2cc(CN3CCN(Cc4ccccc4)CC3)c(C)cc2c1=O [Compound 8r, Methyl 7-((4-benzylpiperazin-1-yl)methyl)-6-methyl-4-oxo-1,4-dihydroquinoline-3-carboxylate] | 100 | 614 | 
13 | Cc1[nH]c2cc(CN3CCN(c4ccc(F)cc4)CC3)ccc2c(=O)c1Cl [Compound 8ao, 3-Chloro-7-((4-(4-fluorophenyl)piperazin-1-yl)methyl)-2-methylquinolin-4(1H)-one] |  | 1.35 | 
14 | COC(=O)c1c[nH]c2cc(CN3CCN(Cc4ccc(OC)cc4)CC3)c(OC)cc2c1=O [Compound 8y, Methyl 6-methoxy-7-((4-(4-methoxybenzyl)piperazin-1-yl)methyl)-4-oxo-1,4-dihydroquinoline-3-carboxylate] | 100 | 276 | 
15 | COC(=O)c1c[nH]c2cc(CN3CCN(c4ccc(OC)cc4)CC3)c(OC)cc2c1=O [Compound 8z, Methyl 6-methoxy-7-((4-(4-methoxyphenyl)piperazin-1-yl)methyl)-4-oxo-1,4-dihydroquinoline-3-carboxylate] | 100 | 255 | 
16 | COC(=O)c1c[nH]c2cc(CN3CCN(Cc4ccccc4)CC3)ccc2c1=O [Compound 8k, Methyl 7-((4-benzylpiperazin-1-yl)methyl)-4-oxo-1,4-dihydroquinoline-3-carboxylate] | 100 |  | 
17 | COC(=O)c1c[nH]c2cc(CN3CCN(c4ccccc4)CC3)c(OC)cc2c1=O [Compound 8w, Methyl 6-methoxy-4-oxo-7-((4-phenylpiperazin-1-yl)methyl)-1,4-dihydroquinoline-3-carboxylate] | 100 | 304 | 
18 | COC(=O)c1c[nH]c2cc(CN3CCN(c4ccc(F)cc4)CC3)ccc2c1=O [Compound 8o, Methyl 7-((4-(4-fluorophenyl)piperazin-1-yl)methyl)-4-oxo-1,4-dihydroquinoline-3-carboxylate] |  |  | % Inhibition Day 6 PI [1]: 98.0%
19 | COC(=O)c1c[nH]c2cc(CN3CCN(Cc4ccc5c(c4)OCO5)CC3)ccc2c1=O [Compound 8m, Methyl 7-((4-(benzo[d][1,3]dioxol-5-ylmethyl)piperazin-1-yl)methyl)-4-oxo-1,4-dihydroquinoline-3-carboxylate] | 40.0 |  | 
20 | COC(=O)c1c[nH]c2cc(CN3CCN(Cc4ccccc4)CC3)c(OC)cc2c1=O [Compound 8x, Methyl 7-((4-benzylpiperazin-1-yl)methyl)-6-methoxy-4-oxo-1,4-dihydroquinoline-3-carboxylate] | 80.0 | 519 | 
21 | COC(=O)c1c[nH]c2cc(CN3CCN(Cc4ccc(OC)cc4)CC3)ccc2c1=O [Compound 8l, Methyl 7-((4-(4-methoxybenzyl)piperazin-1-yl)methyl)-4-oxo-1,4-dihydroquinoline-3-carboxylate] | 69.2 |  | % Inhibition Day 9 PI ([3]; 50 mg/kg oral): 38.8%; % Inhibition Day 9 PI ([3]; 100 mg/kg oral): 43.9%; % Inhibition Day 6 PI [1]: 41.2%
22 | COC(=O)c1c[nH]c2cc(CN3CCN(c4ccc(OC)cc4)CC3)c(C)cc2c1=O [Compound 8t, Methyl 7-((4-(4-methoxyphenyl)piperazin-1-yl)methyl)-6-methyl-4-oxo-1,4-dihydroquinoline-3-carboxylate] | 100 |  | 
23 | COC(=O)c1c[nH]c2cc(CN3CCN(Cc4ccc(OC)cc4)CC3)c(C)cc2c1=O [Compound 8s, Methyl 7-((4-(4-methoxybenzyl)piperazin-1-yl)methyl)-6-methyl-4-oxo-1,4-dihydroquinoline-3-carboxylate] | 80.0 |  | 
24 | COC(=O)c1c[nH]c2cc(N3CCN(c4ccccc4)CC3)c(C)cc2c1=O [Compound 8c, Methyl 6-methyl-4-oxo-7-(4-phenylpiperazin-1-yl)-1,4-dihydroquinoline-3-carboxylate] | 80.0 | 24.4 | 
25 | COC(=O)c1c[nH]c2cc(N3CCN(Cc4ccccc4)CC3)c(OC)cc2c1=O [Compound 8h, Methyl 7-(4-benzylpiperazin-1-yl)-6-methoxy-4-oxo-1,4-dihydroquinoline-3-carboxylate] | 100 |  | 
